Targets include FADD_DED-DD (human) (UniProt Q13158); FADD_DED (human) (UniProt Q13158); CASP8_DED1-DED2 (human) (UniProt Q14790); CASP10_DED1-DED2 (human) (UniProt Q92851); CASP8_DED2 (human) (UniProt Q14790).
Assay in all cases: AlphaScreen or HTRF; ALPHA: FLAG-tagged domain mixed with biotin-tagged domain (cell-free translation mixtures), streptavidin donor beads, anti-DYKDDDDK antibody with protein A acceptor beads; 100 mM Tris-HCl pH 8.0, 0.01% Tween 20, 1 mg/mL BSA; 25 °C, 24 h; median of duplicate reactions
In general terms: Bead proximity is the source of the signal in Alpha formats.

Take “CFLAR_DED1-DED2 (from UniProt O15519 1-170) (domain or fragment)”: the ALPHA signal (RLU) in the test with FADD_DED-DD (human) stood at 14100 RLU; in the test with FADD_DED (human), 2850 RLU; with CASP8_DED1-DED2 (human), 4090 RLU; with CASP10_DED1-DED2 (human), 24600 RLU; in the test with CASP8_DED2 (human), 5340 RLU.

These data come from article PMC8564539.
